From paper PMC2631656 (Journal of medicinal chemistry, 2008) come the findings set out here.

Molecules are shown by their SMILES.

Data set [1] deals with LNCaP (PSMA^+) tumor. Particulars: 4 h p.i., i.v.
The test system of data set [2] is PC-3 PIP (PSMA^+) and PC-3 flu (PSMA^-) xenografts. Particulars: mouse, in vivo.

With `O=C(O)CCC(NC(=O)NC(CCCCNC(=O)c1cncc([125I])c1)C(=O)O)C(=O)O` (centres unmarked) [Compound [^125I]8, 2-(3-[1-carboxy-5-[(5-[^125I]iodo-pyridine-3-carbonyl)-amino]-pentyl]-ureido)-pentanedioic acid], the “radiopharmaceutical uptake on SPECT-CT image” value in data set [1] is recorded as “Tumor uptake was high, with little uptake in normal tissues”. For the same molecule, the “clearance of radioactivity from nontarget organs” value in data set [2] is listed as “complete clearance”.
